Results taken from ChEMBL document CHEMBL2406907, “Chiral Effect of a Phe Residue in Position 3 of the Dmt(1)-L(or D)-Tic(2) Analogues on Opioid Functional Activities” (2013).

By UniProt entry, the sequences of proteins in these tests, tags left out.
UniProt P32300, whole entry, looked up: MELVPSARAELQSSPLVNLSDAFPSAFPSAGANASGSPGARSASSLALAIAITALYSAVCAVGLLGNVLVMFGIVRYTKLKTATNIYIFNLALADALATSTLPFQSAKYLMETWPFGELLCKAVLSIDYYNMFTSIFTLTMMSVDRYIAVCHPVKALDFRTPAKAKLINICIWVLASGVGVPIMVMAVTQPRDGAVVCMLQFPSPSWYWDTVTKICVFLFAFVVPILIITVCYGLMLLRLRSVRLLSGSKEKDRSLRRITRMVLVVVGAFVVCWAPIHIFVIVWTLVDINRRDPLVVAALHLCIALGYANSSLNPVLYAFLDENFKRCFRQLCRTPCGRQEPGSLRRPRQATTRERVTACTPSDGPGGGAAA
UniProt P97266, whole entry, looked up: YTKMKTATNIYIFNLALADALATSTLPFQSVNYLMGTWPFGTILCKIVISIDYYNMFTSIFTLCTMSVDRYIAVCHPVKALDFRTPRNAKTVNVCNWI

Experiments:
[1] = Selectivity ratio of Ki for rat mu opioid receptor to Ki for human delta opioid receptor
[2] = target: Delta-type opioid receptor (Mus musculus) (UniProt P32300); assay: Antagonist activity at delta opioid receptor in ICR mouse vas deferens
[3] = target: Mu-type opioid receptor (Cavia porcellus) (UniProt P97266); assay: Agonist activity at mu opioid receptor in Hartley guinea pig ileum assessed as inhibition of electrically-stimulated muscle contraction at 1 uM relative to control
[4] = Selectivity ratio of IC50 for mu opioid receptor in Hartley guinea pig ileum to IC50 for delta opioid receptor in ICR mouse vas deferens

Structure (SMILES)	Ratio Ki [1]	Ke [2] [nM]	inhibition [3] [%]	Ratio IC50 [4]
Cc1cc(O)cc(C)c1C[C@H](N)C(=O)N1Cc2ccccc2C[C@@H]1C(N)=O	0.067	–	–	–
Cc1cc(O)cc(C)c1C[C@H](N)C(=O)N1Cc2ccccc2C[C@H]1C(N)=O	230	42	–	–
Cc1cc(O)cc(C)c1C[C@H](N)C(=O)N1Cc2ccccc2C[C@@H]1C(=O)N[C@H](Cc1ccc(Cl)cc1)C(=O)N1CCC(Cn2cncn2)(C2CCCCC2)CC1	0.026	–	6	–
Cc1cc(O)cc(C)c1C[C@H](N)C(=O)N1Cc2ccccc2C[C@@H]1C(=O)NCC(=O)N[C@@H](Cc1ccc(Cl)cc1)C(=O)O	–	–	–	23
